The test is described as follows: Perchloroethylene oxidation with dual use system and peracetic acid. The conditions noted are these: Table 2 Entry 6 and Table 3 Entry 3 with peracetic acid.

In the case of `ClC(Cl)=C(Cl)Cl`, the oxidized (after 30 minutes) came to 99.861% and the oxidized (after 1.5 hours) is on record as 99.898%.

The values above are taken from US8115046B2, “Micro encapsulation composition for hydrocarbons and detoxification of highly hazardous chemicals and substances” (dated 2012).
